Columns and labels:
[1] = test system: A549/DDP (cisplatin-resistant A549 cells); assay: MTT antiproliferative activity against cisplatin-resistant A549; assay type: cell-based
Description: (§1) 3-(4,5-dimethylthiazol-2-yl)-2,5-diphenyltetrazolium bromide (MTT) assay was used to determined the antiproliferative activity of dihydroartemisinin-isatin hybrids 5a-e and 6a-j with three-carbon linker against A549, multidrug-resistant A549/DOX and A549/DDP lung cancer cell lines as well as cytotoxicity towards normal lung epithelial cell line (BEAS-2B). The inhibitory effects were expressed in terms of half maximal inhibitory concentration (IC50) values.
(§2) A549, A549/DOX, and A549/DDP lung cancer cells (2×10^3) were plated in each well of a 96-well plate and were allowed to adhere and spread for 24 h. The […] were added to a final concentration of 100 µM, and the cells were cultured for 24 h at 37 °C. 3-(4,5-dimethyl-2-thiazolyl)-2,5-diphenyltetrazolium bromide (MTT) solution (10 µL) was added to each well, and the cultures were incubated for an additional 4 h. A further 100 µL of […] was added and incubation continued overnight. The absorbance at 540 nm was determined in each well with a 96-well plate reader. The growth of the treated cells was compared with that of untreated cells.

[2] = test system: BEAS-2B normal lung epithelial cell line; assay: MTT cytotoxicity towards normal lung epithelial cells
Procedure: as §1
The compounds were dissolved in DMSO with concentrations from 1024 to 1 μg/mL. The NIH/3T3 cells were maintained in culture medium at 37 °C under 5% CO2 atmosphere. Cells were seeded in 96-well plates (1×10^4 cell per well) and allowed to recover for 24 h. After 72 h of exposure, cells were harvested and cell viability was assessed by MTT assay. The CC50 values were calculated by Bliss analysis.

[3] = test system: A549/DOX (doxorubicin-resistant A549 cells); assay: MTT antiproliferative activity against doxorubicin-resistant A549; assay type: cell-based
Description: as §1, §2

COc1cccc2c1C(=O)c1c(O)c3c(c(O)c1C2=O)C[C@@](O)(C(=O)CO)C[C@@H]3O[C@H]1C[C@H](N)[C@H](O)[C@H](C)O1 [doxorubicin, reference compound]
RI2 (Resistance index: IC50(A549/DDP)/IC50(A549)) [1]: 3.72
SI (Selectivity index: IC50(BEAS-2B)/IC50(A549)) [2]: 23.1
RI1 (Resistance index: IC50(A549/DOX)/IC50(A549)) [3]: 13.38
